# A selection: hits, their analogues and other compounds. The true share with any hit is near 1.3%.
# ALOX12 inh: blocks human arachidonate 12S-lipoxygenase; 580,000 compounds, 1.1% hits; Potency, µM (top dose mostly 108 µM), inactives show at the highest dose activity change, negative = inhibition, hits mostly inhibitors; purified 12hLO, xylenol orange hydroperoxide absorbance; P18054; also: potency is read from the fitted curve at half-maximal effect; % is scaled to controls: 0 for no effect and ±100 for the full control effect
#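 Hydroperoxide product was detected by ferrous iron/xylenol orange as the 573 to 405 nm absorbance ratio. Arachidonic acid at 40 uM (final) was turned over for 30 min at room temperature by 150 nM human 12hLO, pH 7.0 Hepes buffer, after 15 min compound preincubation.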
# Giardia kill: Giardia lamblia killing; Giardia lamblia trophozoite viability; activity change, % at 7.66 µM, hits read low; 340,000 compounds, 0.15% hits; in the data active = activity change below about -80%; inconclusive = between about -30% and that limit;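 also: parasites exposed to compound for two days anaerobically before the ATP read; % is scaled to controls: 0 for no effect and ±100 for the full control effect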
#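 Media and compound were dispensed first, then trophozoites at 100 cells/well; plates sat 48 hrs at 37 deg C without oxygen before ATP luminescence reagent was added and read after 15-30 min at room temperature.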
# PTHR1 ag: activates the human parathyroid hormone receptor PTHR1 | Q03431 | HEK293 GP2 PTHR1 cells, GloSensor cAMP luminescence, 1 h | Potency, µM (titrated, usually from 115 µM), for the others: at the top dose activation, hits mostly activators | 410,000 compounds, 0.075% hits | AID 743266; also: potency is read from the fitted curve at half-maximal effect; nearly all actives have a fitted effect of over 55% in size
#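 HEK-293-derived GP2 cells expressing PTHR1 and a GloSensor cAMP reporter, 3,000/well, plated overnight, given luciferin plus IBMX (each 0.5 mM as added) for 1 h at 37 °C, then compound for 1 h at 37 °C. Luminescence was read after 15 min at room temperature.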
# miR-21 reporter: raises the signal of a miR-21 reporter; AID 2288; 340,000 tested, under 10 active; Potency, µM (doses to about 38.3 µM), inactives show at the top dose reporter change, positive = more light; HeLa miR-21 FLuc reporter, luciferase, 48 h; active = well fitted rising curve with a large enough effect; inconclusive = small, poorly fitted or top-dose-only effect; inactive = no such curve, though single readings can be large or run the other way;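 note: % of control where 0% means no effect; miR-21 action dims this reporter so a rising signal means less miR-21 action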
#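 Using DMEM plus 10% FBS, HeLa miR-21-FLuc cells are incubated with test compounds (final up to about 40uM) for 48 hours; firefly luciferase signal is then imaged following reagent-mediated lysis.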
# PINK1 modulator: PINK1 expression modulation | PINK1 immunofluorescence, high-content cytometry, 24 h | Potency, µM (titrated, usually from 76.6 µM), for inactives: top-dose activation (PINK1 increase), most hits filed as activators | 410,000 compounds, 0.2% hits | AID 624263; active = well fitted activation curve with a large enough effect; inconclusive = small, poorly fitted or top-dose-only effect; cell line not stated here; also: potency is read from the fitted curve at half-maximal effect; % of control where 0% means no effect; nearly all actives have a fitted effect of over 65% in size
#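 Cells are seeded, rested 12 hours, then given compound at five concentrations or DMSO for 24 hours. After fixation, blocking and antibody staining, PINK1 amount and mitochondrial localization are scored; CCCP serves as control.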
# ERG-DNA inh: ERG Ets/DNA interaction inhibition | Potency, µM (top dose mostly 76.9 µM), inactives show at the top dose FP activity, negative = inhibition, hits mostly inhibitors | fluorescence polarization, His-ERG Ets domain / labelled DNA | 370,000 compounds, 0.028% hits | P11308; active = well fitted inhibition curve with a large enough effect in the polarisation, with a control signal flat; inconclusive = small, poorly fitted or top-dose-only effect, or effect the other way, or a change in a side signal; inactive = no such curve, though single readings can be large or run the other way; the % refers to the polarisation;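 also: polarization taken with two DNA probes labelled with fluorescein and Texas red; potency is read from the fitted curve at half-maximal effect; % of control where 0% means no effect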
#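 His-tagged ERG Ets domain (1 uM in the protein solution; 300mM KCl, 50mM Tris-HCl, 1mM EDTA, 1mM DTT, pH 7.5) received compound, then a probe mix of 5 nM fluorescein-DNA and 100nM Texas-615-DNA. Fluorescence polarization was read for both dyes.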
# Active calls of the source: *; i = inactive; ? = inconclusive; · = not tested or not shown; [ ] = another dose, or the depositor's remark. Unless noted, calls follow the shape of the dose curve; as a rule, active = well fitted curve in the direction sought with a large enough effect; inconclusive = small, poorly fitted or top-dose-only effect, or another doubt; inactive = no such curve, though single readings can be large; an effect the other way counts as inactive or inconclusive.
canonical_smiles | ALOX12 inh | Giardia kill | PTHR1 ag | miR-21 reporter | PINK1 modulator | ERG-DNA inh
CC(NC(=O)COc1c(I)cc(Cl)c2cccnc12)C1CC1 (stereo not given) | 9% | · | · | · | · | ·
NS(=O)(=O)c1ccc2ccccc2c1 | 12% | 9 | 0% | -2% | 3% | 14%
Cc1oc(-c2cccc(Cl)c2)nc1CN1CCN(C(=O)c2ccco2)CC1 | 35µM* | · | · | · | · | ·
CCN1CCN(CCOc2ccc(Cl)cc2)CC1 | 1.4µM* | -7 | -23% | -7% | -2% | 3%
Cc1oc(-c2cccc3ccccc23)nc1CN1CCC[C@H]1CO | -7% | 0 | -4% | -8% | 0% | -3%
O=C(CC[C@@H]1CNC(=O)[C@@H]2C[C@H](NC(=O)Nc3cccc(Cl)c3)CN12)NCc1cccnc1 | 45µM* | · | · | · | · | ·
C/C(=N\Nc1ccc(C(=O)O)cc1)c1ccc2c(c1)Nc1ccccc1S2 | ? | 12 | -26% | -53% | 3% | -7%
C/C(=N/Nc1ccc(C(=O)O)cc1)c1ccc2c(c1)Nc1ccccc1S2 | 28µM* | 4 | -46% | · | 0% | -2%
COc1ccc(C2=NS(=O)(=O)N(C)C(C(=O)NCc3ccc(F)cc3)=C2)cc1OC | -9% | 3 | -23% | 5% | 0% | 4%
O=C1CSc2sc(=S)sc2SC1 | 5µM* | · | · | · | · | ·
COc1cc(Nc2c(C#N)cnc3c(OC)cccc23)cc(OC)c1OC | 3.2µM* | · | · | · | · | ·
COc1nn(C(C)C(=O)N2N=C(C(F)F)CC2(O)C(F)F)cc1[N+](=O)[O-] (stereo not given) | 6% | -82* | -2%[57.5 µM] | -8% | 11%[38.3 µM] | -5%
CCc1c(C)sc(NC(=O)C2CCCCC2)c1C#N | 8.9µM* | · | · | · | · | ·
CCc1c(C)sc(NC(=O)OC)c1C#N | 25µM* | · | · | · | · | ·
CCc1c(C)sc(NC(=O)c2c(F)cccc2F)c1C#N | -7% | · | · | · | · | ·
O=P(O)(CCCP(=O)(O)CCc1ccccc1)CCc1ccccc1 | -14% | 7 | -13%[57.5 µM] | 2% | -1% | 12%
COc1cccc(N2CCN(CC(=O)N3CCN(S(=O)(=O)c4ccc(Cl)cc4)CC3)CC2)c1 | -22% | -25 | -6% | · | 1% | -10%
COc1cccc(CNC(=O)c2cccc(S(=O)(=O)N3CCN(C)CC3)c2)c1 | 40µM* | 9 | -23% | -4% | 2% | 8%
COc1ccc(CNC(=O)c2cccc(S(=O)(=O)N3CCN(C)CC3)c2)cc1 | -7% | -13 | -66% | 5% | 0% | 14%
COc1cccc(C(=O)CN2CCN(S(=O)(=O)c3ccc(Cl)cc3)CC2)c1 | 56µM* | · | i | -4% | -1% | 0%
CCN(CC)CCNC(=O)c1ccc(NC(=O)c2ccc(S(=O)(=O)N3CCCC3)cc2)cc1 | ? | -8 | -20% | · | 0% | 6%
O=C(O)CN1C(=O)/C(=C\c2cccc(OCc3ccccc3F)c2)SC1=S | 40µM* | -1 | -3% | -20% | 0% | 8%
O=C(O)CN1C(=O)/C(=C\c2cccc(OCc3ccc(Cl)cc3)c2)SC1=S | ? | -12 | -35% | -27% | 0% | 6%
O=C(O)CN1C(=O)/C(=C\c2cccc(OCc3ccc(F)cc3)c2)SC1=S | 50µM* | -11 | i | -13% | 2% | 4%
C/C(=N\NC(=O)c1nnn(-c2nonc2N)c1COc1ccc(F)cc1)c1ccc(Cl)cc1 | -9% | -19 | -1% | -7% | 3% | 18%

# Ordered by the number under miR-21 reporter (smallest number first): three from the list above.
Structure	ALOX12 inh	PTHR1 ag	miR-21 reporter	ERG-DNA inh
C/C(=N\Nc1ccc(C(=O)O)cc1)c1ccc2c(c1)Nc1ccccc1S2	?	-26%	-53%	-7%
COc1cccc(C(=O)CN2CCN(S(=O)(=O)c3ccc(Cl)cc3)CC2)c1	56µM*	i	-4%	0%
COc1ccc(C2=NS(=O)(=O)N(C)C(C(=O)NCc3ccc(F)cc3)=C2)cc1OC	-9%	-23%	5%	4%

# Following part.
canonical_smiles | ALOX12 inh | Giardia kill | PTHR1 ag | miR-21 reporter | PINK1 modulator | ERG-DNA inh
Cc1ccccc1CC(=O)NCCN1CCOCC1 | 0% | -3 | -49% | -8% | 0% | 2%
Cc1noc(C)c1-c1cc2c(cc(C)n2CCN(C)C)c(-c2ccccc2O)n1 | 79µM* | · | · | · | · | ·
N#Cc1cccc(-c2csc(C(O)(c3ccccc3)C(F)(F)F)n2)c1 (stereo not given) | ? | · | i | · | ? | ·
CCn1c(SCC(=O)NC2CCCCC2)nnc1C(C)NC(=O)c1ccccc1F (stereo not given) | -2% | -11 | 10% | 1% | -2% | 0%
COC1/C=C\OC2(C)Oc3c(C)c(O)c4c(c3C2=O)C2(C=C(NC(=O)/C(C)=C\C=C/C(C)C(O)C(C)C(O)C(C)C(OC(C)=O)C1C)C4=O)OCC(=O)O2 (stereo not given) | 5µM* | · | · | · | · | ·
CCOC(=O)c1c(P(=O)(N2CCOCC2)N2CCOCC2)noc1N | -25% | -11 | i | 1% | -2% | 3%
Cc1ccccc1C(=O)N1CCN(c2ccc(NC(=S)NC(=O)c3cccs3)cc2)CC1 | 35µM* | 37 | -2% | ? | 1% | 7%
Cc1ccc(C(=O)N2CCN(c3ccc(NC(=S)NC(=O)c4cccs4)cc3)CC2)cc1 | 11µM* | -13 | -22% | 30% | 1% | 8%
O=[S+]1([O-])NC2(CCN(Cc3ccc(Cl)s3)CC2)COc2ccccc21 | 8%[6.33 µM] | · | · | · | · | ·
Cc1cccc(NC(=O)c2ccccc2NC(=O)c2nc(-c3ccccc3)oc2C)c1 | 35µM* | · | · | · | · | ·
Cc1oc(-c2ccccc2)nc1C(=O)Nc1ccccc1F | 0% | · | · | · | · | ·
Cc1oc(-c2ccccc2)nc1C(=O)NCc1ccccc1 | 18µM* | · | · | · | · | ·
O=C(O)c1ccccc1-c1ccccc1C(=O)Nc1cccc(-c2nc3ccccc3o2)c1 | 11µM* | -9 | -9% | -46% | -3% | 4%
O=C(Nc1nnc([C@@H]2C[C@H](O)[C@@H](CO)O2)s1)c1cccs1 | 6% | · | i | · | 2% | ·
COC(=O)c1cc(OC)c(OC)cc1NC(=O)Cn1nnc(-c2ccccc2Cl)n1 | -15% | 4 | -16%[57.5 µM] | -2% | 18%[38.3 µM] | -5%
O=C(NCC1CC1)c1cn2ccnc(-c3ccccc3)c2n1 | 10% | · | · | · | · | ·
S=C1NC(c2ccccc2)N2C(=S)NC(c3ccccc3)N12 (stereo not given) | 16µM* | -7 | -14%[57.5 µM] | -18% | -1% | -5%
Cc1ccc(C2NC(=S)N3C(c4ccc(C)cc4)NC(=S)N23)cc1 (stereo not given) | ? | · | i | · | 2% | ·
Cc1ccc(NC(=S)NNS(=O)(=O)c2ccc3ccccc3c2)cc1Cl | 40µM* | 2 | i | 0% | 1% | -1%
O=C(CSC1CCCCC1)c1ccc(O)cc1O | 45µM* | · | · | · | · | ·
COc1ccc(SCC(=O)c2ccc(O)cc2O)cc1 | 40µM* | · | · | · | · | ·
O=C(COC(=O)c1ccc(O)cc1O)NC1CCCCCC1 | 290% | 4 | -45% | · | 1% | 7%
COCCN1Cc2ccc(Nc3ccc(OC)cc3)nc2C(C)(C(=O)NC2COC2)C1 (stereo not given) | -15%[176 µM] | · | · | · | · | ·
CSc1ccccc1-n1nnnc1SCc1ccccc1 | 0% | -4 | i | -3% | 0% | -9%

# One compound at a time, from the list above:
# `Cc1oc(-c2ccccc2)nc1C(=O)Nc1ccccc1F` is entered as ALOX12 inh: 0%; Giardia kill: ·; PTHR1 ag: ·; miR-21 reporter: ·; PINK1 modulator: ·; ERG-DNA inh: ·
# `CSc1ccccc1-n1nnnc1SCc1ccccc1` is entered as ALOX12 inh: 0%; Giardia kill: -4; PTHR1 ag: i; miR-21 reporter: -3%; PINK1 modulator: 0%; ERG-DNA inh: -9%

# Screening results: PubChem BioAssay, National Center for Advancing Translational Sciences (NCATS)
